Common to all, as to format: functional, cell-based
In test [1] the target is T1, Uracil nucleotide/cysteinyl leukotriene receptor (Homo sapiens, UniProt Q13304). Put plainly: Agonist activity at human GPR17 in human SNB-19 cells assessed as fold decrease in calcium ion levels at 1 to 100 uM incubated for 2 hrs by Calcium Fura 2 Dynamic assay. The settings on record: filed as agonist, dose 1-100 µM.
The target of test [2] is T1, Uracil nucleotide/cysteinyl leukotriene receptor. Kind of test: Agonist activity at human GPR17 in human LN-229 cells assessed as fold decrease in calcium levels absence of GPR17 siRNA incubated for 2 hrs by Calcium Fura 2 Dynamic assay. The settings on record: filed as agonist.
The target is the same in test [3]. Kind of test: Agonist activity at human GPR17 in human SNB-19 cells transfected with GPR17 siRNA assessed as decrease in calcium levels incubated for 2 hrs by Calcium Fura 2 Dynamic assay. Particulars: filed as agonist.
The target is the same in test [4]. Put plainly: Agonist activity at human GPR17 in human LN-229 cells transfected with GPR17 siRNA assessed as decrease in calcium levels incubated for 2 hrs by Calcium Fura 2 Dynamic assay. Particulars: filed as agonist.
Test [5] has the same target. Kind of test: Agonist activity at human GPR17 in human LN-229 cells assessed as fold decrease in calcium ion levels at 1 to 100 uM incubated for 2 hrs by Calcium Fura 2 Dynamic assay. The settings on record: filed as agonist, dose 1-100 µM.
For test [6] the target is unchanged. Put plainly: Agonist activity at human GPR17 in human SNB-19 cells assessed as fold decrease in calcium levels absence of GPR17 siRNA incubated for 2 hrs by Calcium Fura 2 Dynamic assay. Particulars: filed as agonist.

The chains behind the UniProt entries cited, without tags or fusion partners.
UniProt Q13304, whole entry: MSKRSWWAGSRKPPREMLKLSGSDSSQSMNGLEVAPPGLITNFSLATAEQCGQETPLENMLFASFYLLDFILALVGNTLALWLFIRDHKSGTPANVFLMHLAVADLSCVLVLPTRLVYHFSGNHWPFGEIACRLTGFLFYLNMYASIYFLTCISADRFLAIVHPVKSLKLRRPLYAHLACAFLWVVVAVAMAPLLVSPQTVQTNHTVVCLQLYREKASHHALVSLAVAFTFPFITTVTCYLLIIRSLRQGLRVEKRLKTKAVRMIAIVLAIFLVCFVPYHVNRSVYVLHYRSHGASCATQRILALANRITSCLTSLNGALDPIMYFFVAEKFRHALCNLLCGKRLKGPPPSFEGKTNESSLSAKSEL

The source made the active and inactive calls. The rule behind the calls is not given here.

The values that follow come from ChEMBL document CHEMBL5030526, “Synthesis and Preclinical Validation of Novel Indole Derivatives as a GPR17 Agonist for Glioblastoma Treatment” (J Med Chem, 2021).

Take `O=C(Nc1ccccc1)Oc1cc(OC(=O)Nc2ccccc2)c2c(c1)N(C(c1ccc(F)cc1)c1cccc(Cl)c1O)CC2` (stereo unspecified): the fold change (FC) in test [1] is 1.1; in test [2], 1.6; in test [5] it was 1.1; in test [6], 1.6. For the same molecule, the outcome in test [3] and in test [4] was Active.
